Tested on: HCT-116 human colon tumor xenograft
Test: HCT-116 human colon tumor xenograft model

In the case of cetuximab [Erbitux®], the “survival compared to the vehicle control group” value (Erbitux 1 mg/dose, COTI-2 25 mg/kg where combined) is reported as “no significant difference in the mean survival”, the “Mean survival (Day ± SEM)” value (Erbitux ® 2.0 mg/kg IP Days 1, 4, 7, 10, 13) is reported as 13.6 ± 0.73 days and the Deaths (Erbitux ® 2.0 mg/kg IP Days 1, 4, 7, 10, 13, N 10) is reported as 0.
